Test system: Mature C57B1/6J female mice
Test: Stimulation of ovulation in PMSG-primed mice (corpora haemorrhagica on the ovaries)
Assay type: in vivo
Conditions: Table 4; PMSG 8 IU day 0; 10 IU iv day 2
Experimental: Mature C57B1/6J female mice were treated in the following fashion: On day 0 all mice received a subcutaneous (s.'c) superovulating dose of pregnant mare serum gonadotraphin (PMSG) to stimulate the growth of ovarian follicles. After 48 hours mice received various doses of LHRH, Lys-6-LHRH or saline. On day 3 mice were sacrificed and examined for ovulation. Ovulation was assessed by examining for the presence of corpora haemorrhagica on the ovaries using a stereoscopic microscope at […].

With “HCG: hormone given iv as positive control for ovulation” the “Number of mice ovulating” value was 5/5.
